The values below come from patent publication US20040121410A1, “Pain signaling molecules” (priority 2002, published 2004).

In general, EC50 refers to the concentration that produces a half-maximal response.

In one experiment the target is T1, MrgC11 (Mus musculus, UniProt Q8CIP3).
T1 construct: A full-length MrgC11 cDNA was cloned from the newborn DRG cDNA library; expressed in transfected cells
T1 sequence (Q8CIP3 1-322): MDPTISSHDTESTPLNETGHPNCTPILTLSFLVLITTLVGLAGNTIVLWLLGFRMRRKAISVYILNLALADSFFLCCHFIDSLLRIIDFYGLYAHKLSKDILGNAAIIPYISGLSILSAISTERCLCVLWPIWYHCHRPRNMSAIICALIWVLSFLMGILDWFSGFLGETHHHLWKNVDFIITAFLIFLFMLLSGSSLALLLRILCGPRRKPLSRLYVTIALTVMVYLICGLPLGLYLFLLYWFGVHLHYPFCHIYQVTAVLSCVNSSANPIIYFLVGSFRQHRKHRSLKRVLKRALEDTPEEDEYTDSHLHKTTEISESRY
Kind of experiment: calcium-mobilization assay (FLEXstation, Fura-2/AM) in HEK-MrgC11 cells. The format is cell-based. Here is the method: (§1) To address the questions of the ligand selectivity of the MrgC11 receptor, human embryonic kidney (HEK) 293 cells stably expressing either MrgA1 or MrgC11 were established. Neuropeptides were screened to identify ligands and agonists.
(§2) HEK293 cells were transfected with cDNA encoding the MrgAl-GFP, mNPFF2-GFP or MrgC11-GFP in pcDNA3.1/Zio(+) plasmid (Invitrogen) using the FuGENE6 transfection reagent (Roche Molecular Biomolecules). The transfected cells were selected with 400 μg/ml zeocin in DMEM supplemented with 10% FBS. Each cloned cell was further selected for membrane localization of receptor-GFP fusion protiens.
(§3) The selected cells were maintained in the same medium supplemented with 200 μg/ml zeocin. The stable cell lines were designated HEK-MrgA1, HEK-NPFF2 and HEK-MrgC11.
(§4) To identify putative ligands for MrgC11 and MrgA1 receptors, HEK-MrgC11 or HEKMrgA1 stable cell lines were screened in a calcium-mobilization assay using a fluorescence-imaging plate reader (FLEXstation). Briefly, HEK-MrgA1 or HEK-MrgC11 were plated in 96-black-well plates (Corning) and grown to confluence. After incubation with Fura-2/AM for >20 min, cells were washed and equilibrated for 20 min with HBSS (Hanks' balanced salt solution) assay buffer. The fluorescence emission caused by intracellular calcium mobilization elicited by agonists was determined by using a fluorometric imaging plate reader, Flexstation (Molecular Devices). All peptides were from Phoenix Pharmaceuticals (St. Joseph, Mo.), Bachem, American Peptide (Sunnyvale, Calif.), or Sigma.

Experiment [1] addresses T2, MrgA1 (Mus musculus, UniProt Q91WW5).
T2 sequence (Q91WW5 1-304): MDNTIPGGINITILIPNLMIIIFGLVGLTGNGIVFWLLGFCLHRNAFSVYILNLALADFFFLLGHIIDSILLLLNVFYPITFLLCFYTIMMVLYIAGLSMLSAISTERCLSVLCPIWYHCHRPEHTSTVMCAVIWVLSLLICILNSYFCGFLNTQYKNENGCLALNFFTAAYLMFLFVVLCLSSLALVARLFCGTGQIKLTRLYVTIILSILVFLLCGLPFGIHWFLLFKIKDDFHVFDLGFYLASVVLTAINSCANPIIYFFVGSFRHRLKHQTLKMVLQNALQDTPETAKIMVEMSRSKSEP
Briefly: calcium-mobilization assay (FLEXstation, Fura-2/AM) in HEK-MrgA1 cells. It counts as cell-based. Also on record: expressed in transfected cells. Here is the method:
as §1, §2, §3, §4

The target in experiment [2] is T3, MrgA1-GFP (Mus musculus, UniProt Q91WW5).
T3 sequence (Q91WW5 1-304): T2 sequence (Q91WW5 1-304)
Kind of experiment: agonist-induced internalization of MrgA1-GFP. The format is cell-based. Also on record: expressed in transfected cells. Here is the method:
FIGS. 3A and C show serum starved (>4 hr) HEK-MrgA1 and HEK-MrgC11 cells. FIGS. 3B and D show HEK-MrgA1 or HEK-MrgC11 treated with the indicated agonists for 30 minutes at 37° C. Results are representative of three independent experiments, and the arrow indicates the internalization process.
The ability of agonists to induce the internalization of MrgA1 or MrgC11 was measured., as receptor internalization is a response of GPCRs to ligand stimulation.
Briefly, MrgC11-GFP or MrgA1-GFP stably expressing HEK293 cells were grown in 35 mm glass-bottomed dishes (Mat-Tek, Ashland, Mass.) in DMEM with 10% FBS. After 4-6 hours of serum starvation, cells were treated with agonists at 37° C. for 30 minutes. Cells were washed with PBS and fixed with 3.7% paraformaldehyde in PBS. The subcellular localization of Mrg-GFP was visualized under a Leica confocal fluorescence microscope with a ×20 or ×40 lens.

The target of experiment [3] is T2, MrgA1. Kind of experiment: cAMP production in HEK-MrgA1 (radioimmuno assay). It counts as cell-based. Also on record: expressed in transfected cells. An excerpt:
(§5) FIGS. 4A-F show the heterotrimeric G protein coupling of MrgA1 and MrgC11. […] All results shown are the mean of triplicate determination ±SEM. FIGS. 4B and E show the effect of Gα subunit KO on [Ca^2+]i mobilizatoin. KO MEFs were derived from KO mice at embryonic 8.5 and 9.5 days. Gα12/13 KO MEF (closed triangle) and Gαq/11 KO MEF (open circles) were transfected with the cDNAs encoding the MrgA1-GFP (FIG. 4B) or MrgC11-GFP (FIG. 4E). […] Positively transfected cells were selected by their green fluorescence excited at 480 nm (GFP-positive cells). […] FIGS. 4C and F show cAMP production in HEK-MrgA1 (FIG. 4C) or HEK-MrgC11 (FIG. 4F). Cells were stimulated with various concentrations of FLRFa or γ2-MSH in the presence or absence of 10 μM forskolin. Each value represents the mean ±SEM for three independent experiments.
It is also possible that these receptors are coupled to the Gαi/o or to the Gαs family of heterotrimeric G proteins. Thus, cAMP production was measured in the presence of varioys concentrations of agonists and presence or absence of forskolin.
A radioimmuno assay kit (Amersham Pharmacia) was used to measure cAMP. HEK-MrgA1 or HEK-MrgC11 were cultured in 6-well plates coated with matriGel for ˜26 h at 37° C. in growth medium. […] Quantitation of cAMP was then performed byusing a [^3H] cAMP displacement assay as described in Gilman et al. (Proc. Natl. Acad. Sci. USA 67:305-312 (1970)).
On the technique in general: Cyclic AMP is a second messenger, typically raised through Gs and lowered through Gi signalling.

The target in experiment [4] is T2, MrgA1. Also on record: host or cells: HEK293 cells expressing Gα15 (transient overexpression). The following applies: transiently overexpressed MrgA1, HEK293 cells expressing Gα15; previously reported; cited from earlier work.
For experiment [5], the target named is T3, MrgA1-GFP. Briefly: single-cell calcium assay in Gα KO MEFs transfected with MrgA1-GFP. More on the design: expressed in transfected cells; host or cells: Gαq/11 KO or Gα12/13 KO mouse embryonic fibroblasts (MEFs). It counts as cell-based.
Text: as §5
Wild type and Ga knockout (KO) mouse embryonic fibroblasts (MEFs) were prepared and cultured from embryonic day 8.5 to 9.5 embryos as described in Kabarowski et al. (Proc. Natl. Acad. Sci. USA 97:12109-12114 (2000)). HEK293 and Ga KO MEFs were cultured in DMEM/10% FBS. U73122, U73343 and thapsigargin (TG) were purchased from Calbiochem. Fura-2/AM was purchased from Molecular Probes. All other reagents were from Sigma.
MEF cell lines derived from Gαq/11 or Gα12/13 double gene KO mice were used to test whether activation of MrgA1 or MrgC11 receptors can mobilize calcium responses through the direct participation of Gαq/11. The Gαq/11 KO MEFs or Gα12/13 KO MEFs were transfected with cDNAs encoding either MrgA1-GFP or MrgC11-GFP receptor, and the ability of agonists to increase [Ca^2+]i was measured in individual cells. The GFP receptor fusion proteins were used to identify positively transfected cells, and single-cell calcium assays were performed as described in Dong et al., supra. […] By using a dual wavelength spectrofluorometer coupled to an inverted fluorescence microscope, GFP-positive cells were identified by using an excitation wavelength of 488 nm, a dichroic 505 nm long-pass filter, and an emitter filter at a band pass of 535 nm (Chroma Technology, Brattleboro, Vt.). […]

The mark [6] stands for this setting: Table 1, HEK-MrgC11 cells, FLEXstation assay, means ± SEM, triplicate, Inactive = no activation detected at concentrations up to 10 mM, read-out: EC50 MrgC11.
Where [7] appears, read: Table 1, HEK-MrgA1 cells, FLEXstation assay, means ± SEM, triplicate, Inactive = no activation detected at concentrations up to 10 mM, read-out: EC50 MrgA1.

“Also recorded” adds a separate entry of the source. Read-outs that look alike come from different tables or passages of the source. Where only a bound is given, the exact number is not on record here.

Turning to `CSCC[C@H](NC(=O)[C@@H](N)Cc1ccccc1)C(=O)N[C@@H](CCCN=C(N)N)C(=O)N[C@@H](Cc1ccccc1)C(N)=O` [FMRF-amide], the EC50 on MrgC11 (setting [6]) is 114 ± 32 nM; at MrgA1 [1] (setting [7]), 420 ± 71 nM.

For `CC(C)C[C@H](NC(=O)[C@@H](N)Cc1ccccc1)C(=O)N[C@@H](CCCNC(=N)N)C(=O)N[C@@H](Cc1ccccc1)C(N)=O` [FLRF-amide], the concentration for a half-maximal effect (EC50) was 157 ± 12 nM on MrgC11 (setting [6]), 402 ± 21 nM at MrgA1 [1] (setting [7]) and around 20 nM on MrgA1 [4]. Besides, the “cells with internalization of MrgA1-GFP” value at MrgA1-GFP [2] (3 μM FLRFa, 30 minutes at 37° C.) was > 90 % of cells. The “rapid internalization of MrgA1-GFP” value on MrgA1-GFP [2] (room temperature, same conditions) is reported as “not observed”. Also, at MrgA1 [3] (HEK-MrgA1, 10 μM forskolin), the “forskolin-induced cAMP accumulation” value is on record as “unable to inhibit”. The cAMP production result on MrgA1 [3] (HEK-MrgA1, various concentrations, 10 minutes) is recorded as “No significant inhibition or activation”. In addition, the “calcium response, MrgA1” value is “robust, transient calcium responses” on MrgA1-GFP [5] (Gα12/13 KO MEF); “rescued; also recorded: restored responsiveness” at MrgA1-GFP [5] (Gαq/11 KO MEF cotransfected with wild-type Gαq); “failed to respond; also recorded: completely abrogated” on MrgA1-GFP [5] (Gαq/11 double KO MEF).

Take `N=C(N)NCCC[C@H](NC(=O)[C@H](CCC(N)=O)NC(=O)[C@@H]1CCCN1)C(=O)N[C@@H](Cc1ccccc1)C(N)=O` [PQRF-amide]: the EC50 at MrgC11 (setting [6]) was 126 ± 28 nM; on MrgA1 [1] (setting [7]) it was above 10000 nM.

`CSCC[C@H](NC(=O)[C@@H](N)Cc1ccccc1)C(=O)N[C@@H](CCCNC(=N)N)C(=O)N[C@@H](Cc1ccccc1)C(=O)O` [FMRF-OH]: the EC50 at MrgC11 worked out at 544 ± 117 nM; at MrgA1 [1] it was 8200 nM. Further, the “fold decrease in activity for MrgA1” value on MrgA1 [1] (relative to the parent peptide, modification named in the text (deamidation, D-isomer)) is around 20 fold.
